Here are results for 2 compounds from US10604534B2, “C5-C6-oxacyclic fused iminothiadiazine dioxide compounds bearing an ether linker as BACE inhibitors, compositions, and their use” (Merck Sharp & Dohme Corp., priority 2016, dated 2020).

By UniProt entry, the sequences of proteins in these tests, tags left out. Residues count along the entry.
UniProt Q9Y5Z0, 63-473 limits assumed: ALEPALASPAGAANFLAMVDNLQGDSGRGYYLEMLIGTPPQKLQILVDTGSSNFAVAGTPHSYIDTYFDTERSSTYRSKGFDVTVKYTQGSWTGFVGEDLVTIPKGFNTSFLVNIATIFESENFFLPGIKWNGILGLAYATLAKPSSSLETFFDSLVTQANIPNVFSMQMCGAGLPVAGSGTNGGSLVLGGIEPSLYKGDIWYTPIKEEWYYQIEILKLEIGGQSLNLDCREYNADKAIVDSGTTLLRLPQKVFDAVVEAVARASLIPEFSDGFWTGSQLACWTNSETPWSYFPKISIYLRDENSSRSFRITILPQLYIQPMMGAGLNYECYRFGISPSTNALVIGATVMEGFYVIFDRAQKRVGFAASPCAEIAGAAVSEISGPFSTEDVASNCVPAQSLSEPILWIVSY
UniProt P56817, 75-416 limits assumed: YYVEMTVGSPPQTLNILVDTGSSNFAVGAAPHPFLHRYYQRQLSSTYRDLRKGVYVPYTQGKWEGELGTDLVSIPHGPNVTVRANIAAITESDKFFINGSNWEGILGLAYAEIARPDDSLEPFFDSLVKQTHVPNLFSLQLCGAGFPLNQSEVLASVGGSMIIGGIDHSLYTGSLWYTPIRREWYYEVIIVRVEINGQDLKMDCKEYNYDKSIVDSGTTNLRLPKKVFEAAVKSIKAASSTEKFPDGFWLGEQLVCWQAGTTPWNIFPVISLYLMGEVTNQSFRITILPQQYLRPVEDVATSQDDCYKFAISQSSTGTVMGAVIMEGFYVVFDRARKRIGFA

The target in assay [1] is purified human autoBACE-2 (Homo sapiens (Human), UniProt Q9Y5Z0). As to the kind of experiment: BACE-2 Assay (BACE-HTRF assay). To be noted: read-out: BACE-2 Ki; Ki calculated from IC50 using the Cheng-Prusoff equation; QSY7-EISEVNLDAEFC-Eu-amide substrate, pH 5.0. The procedure:
Inhibitor IC50s at purified human autoBACE-2 are determined in a time-resolved endpoint proteolysis assay that measures hydrolysis of the QSY7-EISEVNLDAEFC-Eu-amide FRET peptide substrate (BACE-HTRF assay). BACE-mediated hydrolysis of this peptide results in an increase in relative fluorescence (RFU) at 620 nm after excitation with 320 nm light. Inhibitor compounds, prepared at 3× the desired final concentration in 1×BACE assay buffer (20 mM sodium acetate pH 5.0, 10% glycerol, 0.1% Brij-35) supplemented with 7.5% DMSO are preincubated with an equal volume of autoBACE-2 enzyme diluted in 1×BACE assay buffer (final enzyme concentration 1 nM) in black 384-well NUNC plates for 30 minutes at 30° C. […] Following laser excitation of sample wells at 320 nm, the fluorescence signal at 620 nm is collected for 400 ms following a […] on a RUBYstar HTRF plate reader (BMG Labtechnologies). […] IC50s are determined by nonlinear regression analysis (sigmoidal dose response, variable slope) of percent inhibition data with minimum and maximum values set to 0 and 100 percent respectively. […] The Ki values are calculated from the IC50 using the Cheng-Prusoff equation.

In assay [2] the target is soluble human BACE1 catalytic domain (Homo sapiens (Human), UniProt P56817). The assay is described as follows: BACE1 HTRF FRET Assay. The following applies: read-out: BACE-1 Ki; Ki calculated from IC50 using the Cheng-Prusoff equation; QSY7-APPswe-Eu substrate, pH 5.0. From the text: • Reagents: Na^+-Acetate pH 5.0; 1% Brij-35; Glycerol; Dimethyl Sulfoxide (DMSO); Recombinant human soluble BACE1 catalytic domain (>95% pure); APP Swedish mutant peptide substrate (QSY7-APP^swe-Eu): QSY7-EISEVNLDAEFC-Europium-amide.
A homogeneous time-resolved FRET assay can be used to determine IC50 values for inhibitors of the soluble human BACE1 catalytic domain. This assay monitors the increase of 620 nm fluorescence that resulted from BACE1 cleavage of an APPswedish APP^swe mutant peptide FRET substrate (QSY7-EISEVNLDAEFC-Europium-amide). This substrate contains an N-terminal QSY7 moiety that serves as a quencher of the C-terminal Europium fluorophore (620 nm Em). In the absence of enzyme activity, 620 nm fluorescence is low in the assay and increased linearly over 3 hours in the presence of uninhibited BACE1 enzyme. Inhibition of BACE1 cleavage of the QSY7-APP^swe-Eu substrate by inhibitors is manifested as a suppression of 620 nm fluorescence.
Varying concentrations of inhibitors at 3× the final desired concentration in a volume of 10 ul are preincubated with purified human BACE1 catalytic domain (3 nM in 10 μl) for 30 minutes at 30° C. in reaction buffer containing 20 mM Na-Acetate pH 5.0, 10% glycerol, 0.1% Brij-35 and 7.5% DSMO. […]

For `COC[C@H]1C[C@@H]2[C@](c3cc(Oc4ccncc4F)ccc3F)(CO1)NC(=N)N(C)S2(=O)=O`, the Ki in assay [1] is 36 nM; in assay [2], 28 nM.
The like results for `COc1cncc(Oc2ccc(F)c([C@]34CO[C@@H](C)C[C@H]3S(=O)(=O)N(C)C(=N)N4)c2)n1` were, in that order, 9.6 nM and 7.3 nM.

Usually Ki stands for the dissociation constant of the complex between target and ligand, obtained from inhibition or displacement.
